Among the targets are B*5301 (Homo sapiens, UniProt P01889, A329T/A93T/A95T/C349S/D201E/D98Y/E176V/E187L/E204Q/E69T/G107R/I218V/K202T/L105A/L119I/N104I/Q94N/R106L/R155S/R180L/S101N/S121R/S35A/S48A/T118I/V127L/V306I/V36M/Y140S/Y91F); HLA-A1 (A*0101) (Homo sapiens, UniProt P04439, A114D/A174V/A182V/D101N/D185E/E176A/E190D/L180R/Q94H/R68K/S129P/T187R/V100A/V91M/W191G); B*3501 (Homo sapiens, UniProt P01889, A329T/A93T/A95T/C349S/D201E/D98Y/E176V/E187L/E204Q/E69T/I218V/K202T/L119I/Q94N/R155S/R180L/S121R/S35A/S48A/T118I/V127L/V306I/V36M/Y140S/Y91F); A*0202 (Homo sapiens, UniProt P04439, D140Y/D185E/D98H/E176V/E277Q/G131W/G231S/I119L/I121R/I166T/I218V/L180W/L300P/L318F/N151K/N90K/P208A/P217A/Q67R/Q86G/Q94H/R138H/R169H/T345S); B*5401 (Homo sapiens, UniProt P01889, A329T/C349S/D138N/D201E/E176V/E187T/E204Q/E69G/I76V/K202T/L119W/R155S/R180L/S121T/S35A/S48A/V127L/V306I/V36M/Y140L).

Experiment in all cases: biochemical
Another experiment addresses A*2601 (Homo sapiens, UniProt P04439, A114D/A173T/A270S/D101N/D185E/E277Q/E87N/F33Y/G231S/I121R/I218V/K168Q/L180W/L300P/L318F/P208A/P217A/Q86R/Q94H/R138Q/S129P/T187R/T323A/T345S/V100A/V358M). Format: binding.
For the next experiment, the target named is A*3002 (Homo sapiens, UniProt P04439, D101N/D140H/D185E/E176R/F33S/G80R/H175R/K168Q/Q94H/R138E/R41S/V100E). In kind it is binding.
The next experiment addresses A*0206 (Homo sapiens, UniProt P04439, D140Y/D185E/D98H/E176V/E277Q/F33Y/G131W/G231S/I119V/I121R/I166T/I218V/L300P/L318F/N151K/N90K/P208A/P217A/Q86G/Q94H/R138H/R169H/T345S). In kind it is binding.
The next experiment deals with B*4501 (Homo sapiens, UniProt P01889, A329T/A65T/A93T/A95T/C349S/D138N/D201E/D98Y/E176V/E187L/E204Q/E69K/H137Y/K202T/L119W/N87E/Q56L/Q94N/R155S/R180D/S121R/S35A/S48T/V127L/V306I/V36M/W191S/Y140L/Y33H/Y91S). In kind it is binding.
The next experiment deals with B*0701 (Homo sapiens, UniProt P01889). As to conditions: B*0701 (nM), binding of B7-like supermotif 10-mer peptides to purified HLA-B*0701.
Another experiment has as its target A*2902 (Homo sapiens, UniProt P04439, A270S/D101N/D185E/E176V/E277Q/E87Q/F33T/G231S/H175R/I121M/I218V/I322F/K168Q/L300P/L318F/M331R/P208A/P217A/Q86L/T323A/T345S/V100A/V358M). Format: binding.

Here are results for 16 compounds from patent US9340577B2, “HLA binding motifs and peptides and their uses” (priority 1992, dated 2016).

Read-outs that look alike come from different tables or passages of the source.

Usually IC50 stands for the concentration that inhibits the measured activity by half. As to `CC[C@H](C)[C@H](NC(=O)[C@@H](NC(=O)[C@H](Cc1ccccc1)NC(=O)[C@H](CC(N)=O)NC(=O)[C@@H](NC(=O)[C@@H](NC(=O)[C@H](CS)NC(=O)[C@@H]1CCCN1C(=O)[C@@H](N)Cc1ccc(O)cc1)[C@@H](C)O)C(C)C)[C@@H](C)O)C(=O)N[C@@H](Cc1ccccc1)C(=O)O` [15.225], the IC50 against B*5301 (B*5301 (nM)) came to 257 nM.

On to `CSCC[C@H](NC(=O)[C@@H](NC(=O)[C@@H](NC(=O)[C@@H]1CCCN1C(=O)[C@H](CC(C)C)NC(=O)[C@H](CC(=O)O)NC(=O)[C@H](CO)NC(=O)[C@H](C)N)[C@@H](C)O)[C@@H](C)O)C(=O)N[C@@H](CC(N)=O)C(=O)N[C@@H](Cc1ccc(O)cc1)C(=O)O` [Peptide 1610.02], for which the half-maximal inhibitory concentration (IC50) against A*2601 was > 20 µM; against A*3002 it was 0.791 µM; against HLA-A1 (A*0101) it was 0.032 µM.

`CC(C)C[C@H](NC(=O)[C@H](CO)NC(=O)[C@@H](NC(=O)[C@H](CC(=O)O)NC(=O)[C@H](CCC(N)=O)NC(=O)[C@@H](NC(=O)[C@@H](N)[C@@H](C)O)C(C)C)C(C)C)C(=O)N[C@@H](CCC(=O)O)C(=O)N[C@H](C(=O)O)C(C)C` [Peptide 1593.55] gave a half-maximal inhibitory concentration (IC50) against A*0206 of 0.194 µM. This lies in the sub-micromolar range.

For `CC[C@H](C)[C@H](NC(=O)[C@H](Cc1ccc(O)cc1)NC(=O)[C@H](CC(C)C)NC(=O)[C@H](Cc1ccc(O)cc1)NC(=O)CNC(=O)[C@@H](NC(=O)[C@@H](NC(=O)[C@H](CCC(=O)O)NC(=O)[C@@H](N)CCC(=O)O)[C@@H](C)CC)[C@@H](C)O)C(=O)N[C@@H](CO)C(=O)N[C@@H](C)C(=O)N[C@@H](Cc1c[nH]c2ccccc12)C(=O)O` [Peptide 9002.0342], the IC50 against B*4501 was 1.49 µM.

At B*5301, `CC(C)C[C@H](NC(=O)[C@@H]1CCCN1C(=O)[C@H](Cc1ccccc1)NC(=O)[C@H](CCC(N)=O)NC(=O)[C@@H]1CCCN1C(=O)[C@H](CCCNC(=N)N)NC(=O)[C@@H](NC(=O)[C@@H]1CCCN1C(=O)[C@@H](N)Cc1ccccc1)C(C)C)C(=O)O` returned a half-inhibitory concentration (IC50) of 319 nM.

`CC[C@H](C)[C@H](NC(=O)CNC(=O)[C@H](CCCCN)NC(=O)[C@H](CC(=O)O)NC(=O)[C@H](CC(C)C)NC(=O)[C@@H]1CCCN1C(=O)[C@@H](N)CC(C)C)C(=O)N[C@@H](CCCCN)C(=O)N1CCC[C@H]1C(=O)N[C@@H](Cc1ccc(O)cc1)C(=O)O` [15.210] yielded an IC50 against B*3501 of 0.548 µM.

Turning to `CC[C@H](C)[C@H](NC(=O)[C@H](CC(N)=O)NC(=O)[C@@H](NC(=O)[C@@H]1CCCN1C(=O)[C@@H](N)[C@@H](C)O)C(C)C)C(=O)N[C@H](C(=O)NCC(=O)N[C@@H](CCCNC(=N)N)C(=O)N[C@@H](CC(N)=O)C(=O)N[C@@H](CC(C)C)C(=O)O)[C@@H](C)CC` [15.251], the IC50 on B*0701 came out at 152 nM; at B*3501, 18 µM.

`CC(C)C[C@H](NC(=O)[C@H](Cc1ccc(O)cc1)NC(=O)[C@H](CCC(=O)O)NC(=O)[C@H](CCC(=O)O)NC(=O)[C@H](C)N)C(=O)N[C@H](C(=O)N1CCC[C@H]1C(=O)N[C@@H](CCC(N)=O)C(=O)N[C@@H](CCC(N)=O)C(=O)NCC(=O)N[C@@H](Cc1ccccc1)C(=O)N[C@@H](Cc1ccccc1)C(=O)O)C(C)C` [Peptide 9002.0347] yielded an IC50 against B*4501 of 0.013 µM.

The compound `CC[C@H](C)[C@H](NC(=O)[C@@H](NC(=O)[C@@H]1CCCN1C(=O)[C@H](CC(N)=O)NC(=O)[C@@H](NC(=O)CNC(=O)[C@H](Cc1ccccc1)NC(=O)[C@@H](NC(=O)[C@H](C)N)[C@@H](C)CC)C(C)C)[C@@H](C)O)C(=O)O` [Peptide 86.0178] registered a concentration for half-maximal inhibition (IC50) against A*0206 of 0.421 µM.

Consider `CSCC[C@H](NC(=O)[C@@H](N)C(C)C)C(=O)N[C@@H](C)C(=O)NCC(=O)N[C@H](C(=O)NCC(=O)N[C@@H](CO)C(=O)N1CCC[C@H]1C(=O)N[C@@H](Cc1ccc(O)cc1)C(=O)O)C(C)C` [Peptide 1215.02], for which the IC50 came to 0.091 µM against A*2902 and 0.0076 µM on A*3002.

`CC[C@H](C)[C@H](NC(=O)[C@@H](NC(=O)[C@@H]1CCCN1C(=O)[C@H](CC(=O)O)NC(=O)[C@H](CC(=O)O)NC(=O)[C@@H]1CCCN1C(=O)CNC(=O)[C@H](Cc1ccc(O)cc1)NC(=O)[C@H](CC(C)C)NC(=O)[C@H](CC(C)C)NC(=O)[C@@H](N)CC(N)=O)[C@@H](C)O)C(=O)O` [Peptide 9013.0310] yielded an IC50 at A*0202 of 0.421 µM.

As for `CSCC[C@H](N)C(=O)N[C@H](C(=O)N[C@@H](CC(=O)O)C(=O)N[C@@H](CC(C)C)C(=O)N[C@H](C(=O)N[C@@H](CCC(N)=O)C(=O)N[C@@H](CCC(=O)O)C(=O)N[C@@H](CC(N)=O)C(=O)N[C@@H](Cc1ccc(O)cc1)C(=O)O)C(C)C)[C@@H](C)O` [Peptide 1610.01], the IC50 worked out at 0.659 µM at A*2601, 0.46 µM on A*2902, 2.36 µM on A*3002 and 0.0071 µM against HLA-A1 (A*0101).

As to `CC(C)[C@H](NC(=O)[C@H](CO)NC(=O)[C@H](CCCCN)NC(=O)[C@H](CC(=O)O)NC(=O)[C@@H](NC(=O)CN)[C@@H](C)O)C(=O)N[C@H](C(=O)N[C@@H](CS)C(=O)N[C@H](C(=O)N[C@@H](Cc1ccc(O)cc1)C(=O)O)[C@@H](C)O)[C@@H](C)O` [Peptide 1598.01], the IC50 at A*2601 was > 20 µM; on A*2902, 4.75 µM; against A*3002, 1.89 µM; at HLA-A1 (A*0101) it was 0.412 µM.

On to `CC(C)C[C@H](N)C(=O)N[C@H](C(=O)N[C@@H](CC(=O)O)C(=O)N[C@@H](Cc1c[nH]cn1)C(=O)N[C@@H](Cc1ccccc1)C(=O)N[C@H](C(=O)N[C@@H](CCC(N)=O)C(=O)N[C@@H](CCC(=O)O)C(=O)N[C@@H](CC(N)=O)C(=O)N[C@@H](Cc1ccc(O)cc1)C(=O)O)C(C)C)[C@@H](C)O` [Peptide 1610.03], for which the figures for the IC50 against A*2601, against A*3002 and against HLA-A1 (A*0101) were 3.76 µM, 1.83 µM and 0.0058 µM, respectively.

The compound `CC[C@H](C)[C@H](NC(=O)[C@@H]1CCCN1C(=O)[C@@H](NC(=O)[C@H](CCCCN)NC(=O)CNC(=O)CNC(=O)[C@H](CC(=O)O)NC(=O)[C@H](C)NC(=O)[C@H](Cc1c[nH]cn1)NC(=O)[C@H](Cc1ccc(O)cc1)NC(=O)[C@H](CCC(=O)O)NC(=O)[C@@H](N)[C@@H](C)O)C(C)C)C(=O)O` [Peptide 9002.0345] yielded an IC50 against B*4501 of 0.061 µM. That is a double-digit nanomolar value.

For the compound `CC[C@H](C)[C@H](NC(=O)[C@H](CO)NC(=O)[C@H](Cc1ccccc1)NC(=O)[C@H](CO)NC(=O)[C@H](CS)NC(=O)CNC(=O)[C@@H]1CCCN1C(=O)[C@@H](N)CC(C)C)C(=O)N[C@@H](Cc1ccccc1)C(=O)N[C@@H](CC(C)C)C(=O)O` [15.220], the IC50 at B*3501 stood at 8 µM; against B*5301 (B*5301 (nM)), 686 nM; at B*5401, 8.43 µM.
